Ab-91 heavy chain CDR variants: yeast mating affinities

Target: peptide PDVDLGDISGINAS, taken from heptad repeat 2 (HR2) of SARS-CoV-2 spike.

Each scFv is VL, a (GGGGS)3 linker, VH, as in the parent Ab-91, and differs from it in the CDRs of the heavy chain only.
VL: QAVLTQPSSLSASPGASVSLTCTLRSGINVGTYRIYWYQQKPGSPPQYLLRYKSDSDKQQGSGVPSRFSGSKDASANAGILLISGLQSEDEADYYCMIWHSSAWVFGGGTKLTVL
VH: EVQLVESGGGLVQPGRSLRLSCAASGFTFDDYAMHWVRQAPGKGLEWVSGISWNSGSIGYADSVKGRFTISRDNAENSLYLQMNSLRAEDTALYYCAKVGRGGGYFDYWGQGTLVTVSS

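The starting antibody came from a phage panning campaign against this peptide. The library (AAYL51) carries one to three amino acid substitutions per variant, with no insertions or deletions. Affinity was read by AlphaSeq, a pooled yeast mating assay with surface-displayed partners. Pairs that bind mate more often; barcode pairs of the diploids are counted by sequencing. Scores were corrected for input abundance and mapped to Kd with protein pairs of known affinity run in the same pool. There are three technical replicates.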

Each variant is given by its three heavy chain CDRs, as the data file delimits them; those of the parent are GFTFDDYAMH, GISWNSGSIGYADSVK, VGRGGGYFDY. Values are log10 of the apparent Kd in nM; lower means stronger binding. A mean of the replicates is given; it leaves out those without a signal. A pair that was not seen in that replicate is written "ND"; this usually means weak binding, but a binder can also be missed.

CDR-H1,CDR-H2,CDR-H3,"replicates, log10 nM",mean log10 Kd (nM),empty controls
GWFFDDYAMH,GISWNSGSIGYADSVK,VGRGGGYFDL,3.43 / 4.37 / 4.04,3.95,2/9 (4.76)
GFTFDDYAMH,GRSWNSGSIGYADSVK,VWRGGGYWDY,ND / ND / ND,ND,1/9 (4.09)
GFTFDDYAMH,GISWNYGSTCYADSVK,VGRGGGYFDY,ND / ND / ND,ND,0/9
GFRFTDYAMH,GISWNSGSIGYADSVK,VGCGGGYFDY,3.96 / 3.09 / ND,3.53,0/9
GFTFDDYAME,GGSWNSGAIGYADSVK,VGRGGGYFDY,ND / 5.99 / ND,5.99,2/9 (3.95)
GFTFDDYAMH,GISWNSGSIGYADSVK,VGRGGGYCDR,4.26 / 5.09 / 4.34,4.57,3/9 (5.00)
GFTFDDYSVH,GISWNSGYIGYADSVK,VGRGGGYFDY,ND / ND / ND,ND,1/9 (2.80)
GFTFDDYAMH,GHSWNSGSIGYDDSVK,VGRGGGYFDY,ND / ND / ND,ND,3/9 (4.46)
GFTFDDWAMH,GISWNSGSIGYADSVK,VGRGGGYFDY,4.40 / ND / ND,4.40,1/9 (4.91)
GFTFDDYAMH,GISWNSISIGYADSVK,VGRKGGVFDY,ND / 3.43 / 4.13,3.78,2/9 (5.05)
GFTGDDYAMH,GISWNSGSIGYADSVK,FGRGGGYFWY,ND / ND / ND,ND,0/9
GFTFDNYAMH,GISWNSGQHGYADSVK,VGRGGGYFDY,0.85 / 0.84 / 0.22,0.64,9/9 (5.19)
GFTFDDYAMH,DISWNSGEIGYADSVK,VGYGGGYFDY,ND / ND / ND,ND,2/9 (3.55)
GFTFDDYAMH,GISWNPGSIGYAKSVK,VGRLGGYFDY,5.31 / 5.38 / ND,5.35,4/9 (4.64)
GFTFDDYAMH,GISSNSGSIGYATTVK,VGRGGGYFDY,3.00 / 2.79 / 2.32,2.70,5/9 (4.47)
GFTFDDYAKD,GISWNSGSIGYADSVK,VGRGGIYFDY,4.45 / ND / ND,4.45,3/9 (4.36)
GFTFDDYAMH,GIYENSGSIGYADRVK,VGRGGGYFDY,ND / ND / ND,ND,0/9
GFTFDDYAMH,GISWNSGSHGYADSVK,VGRGGGFFDY,2.22 / 2.42 / 1.81,2.15,1/9 (4.04)
GFTFDDYAMH,GISWNSGTIGYADSVK,KGRGGGYFWY,4.11 / 4.43 / 5.33,4.62,4/9 (4.97)
GFTFDDYALH,GISWNSGSIGYADSVK,SGRGGTYFDY,ND / ND / ND,ND,3/9 (4.60)
GFTFDDYAMH,GISWNSGSIGYADKVK,VGCGGGYFDD,3.65 / ND / 4.99,4.32,2/9 (4.47)
DFTFDDYAMH,GISWNSGSSGYADSVK,VGRGGGYFDY,3.27 / ND / ND,3.27,2/9 (4.12)
GFTFDDYLMH,YIVWNSGSIGYADSVK,VGRGGGYFDY,4.85 / 4.61 / 4.03,4.50,2/9 (4.62)
SFTFDDYAMH,GISWNSMSIGYADSVK,VGRGGGDFDY,4.91 / ND / ND,4.91,3/9 (3.46)
GFTFFDYAMH,GISWNSGIIGYADSVK,VGRGGGQFDY,4.43 / 3.87 / 5.81,4.70,9/9 (4.64)
VFTFDDYAMH,GIGWNSGSIGYADSHK,VGRGGGYFDY,ND / ND / ND,ND,1/9 (3.83)
GFTFDLYAMH,GISWNSGSIGYADSVK,VGKGGGYFDG,ND / ND / ND,ND,2/9 (3.75)
GFTFDDYAMH,GISWNSGFIGYADSVK,VKRAGGYFDY,ND / ND / ND,ND,0/9
GFTFDDYAMH,GISVNSGSIGYADSVK,VGRGGGCFDH,ND / ND / ND,ND,1/9 (3.46)
GFTFDDYAMH,GISWNSGSIGYRLSVK,VPRGGGYFDY,ND / ND / ND,ND,1/9 (4.78)
GFTFDDYAFH,GISWNSGSIGYADSVK,VGRGGGTFDY,3.76 / 3.38 / 2.29,3.14,0/9
GFTFDDYAMG,GISWNSESTGYADSVK,VGRGGGYFDY,ND / ND / ND,ND,2/9 (4.64)
GFTFDDYAMH,MISWNSGPIGYADSVK,VGRGGGYFDY,ND / ND / ND,ND,2/9 (4.91)
GFTFDDYAMH,GISWNSGSIGYADSVK,CGRGGGNFDY,ND / ND / ND,ND,0/9
GFTRDDYAMH,GISWDSGSIGYADSVK,VGTGGGYFDY,ND / ND / ND,ND,1/9 (3.11)
GFTFDDYAMH,NISWESGSIGYADSVK,VSRGGGYFDY,4.84 / 4.96 / 4.23,4.68,0/9

The opening 2 entries, copied out:

CDR-H1,CDR-H2,CDR-H3,"replicates, log10 nM",mean log10 Kd (nM),empty controls
GWFFDDYAMH,GISWNSGSIGYADSVK,VGRGGGYFDL,3.43 / 4.37 / 4.04,3.95,2/9 (4.76)
GFTFDDYAMH,GRSWNSGSIGYADSVK,VWRGGGYWDY,ND / ND / ND,ND,1/9 (4.09)

In this assay the parent's reference entry averaged 1.86; its copy inside this library read 0.88. Empty control strains, which show no peptide, gave a signal in 21% of pairings with library AAYL51; the median was 4.54 and 95% of these signals were weaker than 3.26. No background was subtracted. For each scFv, signals with the empty controls are counted beside the result, with their mean in brackets.

Values reported by Engelhart et al. 2022, doi:10.1038/s41597-022-01779-4 (FLAb copy).